Target: recombinant human HDAC3 enzyme (HDAC3(DAD) enzyme complex) (Homo sapiens, UniProt O15379)
Experiment: HDAC3 assay (Fluor-de-Lys fluorescence)

By UniProt entry, the sequences of proteins in these tests, tags left out. Where a name states a change or a piece, a line headed by the entry shows the natural chain unless it says otherwise.
UniProt O15379: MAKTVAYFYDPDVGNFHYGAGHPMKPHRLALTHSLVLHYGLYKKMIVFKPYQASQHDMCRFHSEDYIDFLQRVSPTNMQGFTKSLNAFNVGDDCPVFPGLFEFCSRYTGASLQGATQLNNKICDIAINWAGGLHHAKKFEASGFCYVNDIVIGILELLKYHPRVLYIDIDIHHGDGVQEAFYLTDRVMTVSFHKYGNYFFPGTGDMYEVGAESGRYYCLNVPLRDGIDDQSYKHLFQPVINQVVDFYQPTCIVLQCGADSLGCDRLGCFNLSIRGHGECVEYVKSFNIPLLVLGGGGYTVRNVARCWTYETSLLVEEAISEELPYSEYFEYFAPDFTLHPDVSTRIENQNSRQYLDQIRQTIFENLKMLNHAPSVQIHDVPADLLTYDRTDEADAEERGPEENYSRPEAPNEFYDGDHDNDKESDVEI

Question: CCCC(CCC)C(=O)O [Valproic acid, 2-propylpentanoic acid] was tested. Which IC50 did it give?
Answer: 40 µM
